Values of other authors as cited in patent US20070101461A1, “Method for Improving Phytoremediation Treatment of a Contaminated Medium” (priority 2001, published 2007).

Test system: plant
Settings: cited from earlier work

## Amino-dinitrotoluene
  Fate in plant (toxic, build up, or volatile): Rather persistent,
